# Test results: PubChem BioAssay AID1347070 (National Center for Advancing Translational Sciences (NCATS), 2019)
# The list shows a part of the results, in another mix than the full data. Active and inactive are the calls of the source. Calls follow the shape of the dose curve; as a rule, active = well fitted activation curve with a large enough effect; inconclusive = small, poorly fitted or top-dose-only effect; inactive = flat fitted curve, though single readings scatter.
# Test: qHTS of alpha-syn Inhibitors: NCGC Sytravon Library Screen; also: 0% is about no effect
# Conditions: S. cerevisiae alpha-synuclein toxicity rescue, BacTiter-Glo growth, 24 h; at 46.1 µM (top of the series)
# Source text: The goal of this project is to identify new chemical probes capable of reversing the toxicity associated with the Parkinson disease-related protein, alpha-synuclein. Compounds will be selected on their ability to restore growth in yeast cells expressing toxic levels of alpha-synuclein. These compounds will provide a complementary approach to deciphering the tangled mechanisms of toxicity and protection that we have uncovered through genome-wide genetic screens and are beginning to uncover in a large-scale proteomics analysis with mass spectroscopy. To this end, a miniaturized assay was developed to be screened against the Molecular Libraries Small Molecule Repository (MLSMR) to discover alpha-synuclein inhibitors. […] The phenotype of interest will be that of an Activator and this screen is run against the NCGC Sytravon Library collection. NIH Chemical Genomics Center [NCGC] NIH Molecular Libraries Probe Centers Network [MLPCN] MLPCN Grant: NS060957 Assay Submitter (PI): Susan Lindquist, Whitehead Institute/MIT
# Dispense 2.5 microL yeast galactose medium per 1536-well plate, pin compound, dispense 2.5 microL alpha-synuclein expressing yeast in galactose medium at OD600=0.02 (pregrown in raffinose medium to mid-log phase) per well, incubate for 24 hr at 30 deg C, and cell growth will be measured using 5 microL of Bactiter/Glo reagent to entire plate and read using Luminescence Protocol in ViewLux.
row,SMILES,growth rescue (activation)
1,O=P1(N(CCCl)CCCl)NCCC(C(F)(F)F)O1 (stereo unspecified),inactive: -0.337%
2,CC(C)(C)C(=O)NC(Sc1ncccn1)C(Cl)(Cl)Cl (stereo unspecified),inactive: -0.473%
3,CCOP(=O)(Nc1ccc(C)cn1)OCC,inactive: -18.3%
4,CCC1=CC2Cc3nc4ccc(Cl)cc4c(N)c3C(C1)C2 (stereo unspecified),inactive: 5.13%
5,O=[As](O)(c1cccs1)c1cccs1,inactive: -1.43%
6,Nc1cccc([As](=O)(O)c2ccccc2)c1,inactive: -2.74%
7,CN(C)C(=O)c1cc([N+](=O)[O-])cc2c1-c1c(cc([N+](=O)[O-])cc1[N+](=O)[O-])C2=O,inactive: 11%
8,N#CCCN(C(=O)COC(=O)C(O)(c1ccccc1)c1ccccc1)c1ccc(F)cc1,inactive: -1.94%
9,Nc1ccccc1[As](=O)(O)c1ccccc1,inactive: -0.923%
10,CS(=O)(=O)c1cc([N+](=O)[O-])c2no[n+]([O-])c2c1,inactive: 26%
11,Nc1cccc2c([As](=O)(O)O)cccc12,inactive: -6.79%
12,COc1cc(C(=O)NCC2(N3CCOCC3)CCCCC2)cc(Cl)c1OC(C)C,inactive: -0.0069%
13,COc1cc(I)ccc1[As](=O)(O)O,inactive: 7.13%
14,CC(C)NC(=O)NP(=O)(Oc1ccccc1)Oc1ccccc1,inactive: -6.09%
15,O=[As](O)(c1ccc(O)cc1)c1ccccc1O,inactive: 1.15%
16,O=[N+]([O-])c1ccc(Nc2ccc(Oc3ccc([N+](=O)[O-])cc3[N+](=O)[O-])cc2)c([N+](=O)[O-])c1,inactive: 2.38%
17,COP(=O)(OC)N1CC1c1ccccc1 (stereo unspecified),inactive: -0.611%
18,O=C(O)C(O)c1ccc(N(CCCl)CCCl)cc1 (stereo unspecified),inactive: 0.572%
19,CSc1ccc(Nc2c([N+](=O)[O-])cc([N+](=O)[O-])cc2[N+](=O)[O-])cc1,inactive: -22.3%
20,O=C(O)C(=O)c1ccc(N(CCCl)CCCl)cc1,inactive: -11.2%
21,CC(C)c1nc(Nc2ccccc2)n(P(=O)(N(C)C)N(C)C)n1,inactive: 3.42%

row,SMILES,growth rescue (activation)
1,CC(C)=N/N=C(\N)N[N+](=O)[O-],inactive: -1.81%
2,c1cc(-c2nn[nH]n2)ccc1-c1nn[nH]n1,inactive: -1.76%
3,Nc1ccc([As](=O)(O)c2ccc(N)cc2)cc1,inactive: -0.797%
4,O=[N+]([O-])c1cc([N+](=O)[O-])c(CCNc2ccccc2)c([N+](=O)[O-])c1,inactive: -2.33%
5,CCN(N=Nc1nonc1N)c1nonc1N,inactive: 1.65%
6,Nc1cccc2ccc([As](=O)(O)O)cc12,inactive: 0.639%
7,O=C(O)c1ccccc1[As](=O)(O)O,inactive: -5.75%
8,CN(C)P(=O)(N(C)C)n1c(Nc2ccccc2)nnc1-c1ccccc1,inactive: 15.3%
9,COc1ccccc1OP(=O)(Nc1ccc(C)cn1)Oc1ccccc1OC,inactive: -27%
10,Clc1ccc(Cl)c(NC2=NCC(CBr)S2)c1 (stereo unspecified),inactive: 5.81%
11,Cc1ccc(N/C(=N/P(=O)(N2CCOCC2)N2CCOCC2)N2CCOCC2)cc1,inactive: -9.6%
12,CC(=O)Nc1ccc([As](=O)(O)O)c(O)c1,inactive: 5.21%
13,CC(C)(C)C(=O)NC(Sc1ccccc1)C(Cl)(Cl)Cl (stereo unspecified),inactive: 17.2%
14,Cc1ccc(OP(=O)(Nc2ccccn2)Oc2ccc(C)cc2)cc1,inactive: 1.39%
15,O=C(NC1CCS(=O)(=O)C1)NP(=S)(Oc1ccccc1)Oc1ccccc1 (stereo unspecified),inactive: -6.56%
16,c1ccc(-c2nn[nH]n2)c(-c2nn[nH]n2)c1,inactive: 4.4%
17,Nc1ccc([As](=O)(O)c2ccc([N+](=O)[O-])cc2)cc1,inactive: -7.51%
18,O=[As](O)(c1ccccc1)c1ccc(O)cc1,inactive: 4.51%
19,O=P(Nc1nc2ccccc2s1)(c1ccccc1)c1ccccc1,inactive: 6.46%
20,CC(C)C(=O)NC(Sc1ccccc1)C(Cl)(Cl)Cl (stereo unspecified),inactive: -2.5%
